Measured values: ChEMBL document CHEMBL4028888, “Design of MC1R Selective γ-MSH Analogues with Canonical Amino Acids Leads to Potency and Pigmentation” (J Med Chem, 2017)

The chains behind the UniProt entries cited, without tags or fusion partners.
UniProt P32245, whole entry: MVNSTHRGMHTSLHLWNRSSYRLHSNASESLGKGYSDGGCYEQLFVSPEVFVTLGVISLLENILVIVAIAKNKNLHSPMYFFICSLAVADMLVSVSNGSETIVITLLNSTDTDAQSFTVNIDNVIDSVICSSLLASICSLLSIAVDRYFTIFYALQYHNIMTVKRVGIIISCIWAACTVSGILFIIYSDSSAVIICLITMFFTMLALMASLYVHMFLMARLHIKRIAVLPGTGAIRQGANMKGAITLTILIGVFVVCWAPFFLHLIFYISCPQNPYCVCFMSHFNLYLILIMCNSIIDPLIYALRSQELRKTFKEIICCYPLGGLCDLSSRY

Target: Melanocortin receptor 4 (Homo sapiens, UniProt P32245)
Experiment: Agonist activity at human MC4R expressed in HEK293 cells assessed as induction of intracellular cAMP accumulation at 10 uM after 3 mins relative to MT-2
Type: cell-based
Details: 0.05 h, read-out: %max

Emax at 10 µM: 18%
Structure (SMILES): CCCC[C@H](NC(=O)[C@@H](NC(=O)[C@@H](N)Cc1ccc(O)cc1)C(C)C)C(=O)NCC(=O)N[C@@H](Cc1c[nH]cn1)C(=O)N[C@H](Cc1ccc2ccccc2c1)C(=O)N[C@@H](CCCN=C(N)N)C(=O)NC(Cc1c[nH]c2ccccc12)C(=O)N[C@@H](CC(=O)O)C(=O)N[C@@H](CCCN=C(N)N)C(=O)N[C@@H](Cc1ccccc1)C(=O)NCC(N)=O (stereo in doubt)
